# Yeast mating assay 2: variants of the scFv Ab-91

All variants were tested on one target, the spike HR2 peptide PDVDLGDISGINAS (SARS-CoV-2).

Parent: Ab-91, a human scFv built as VL, three GGGGS repeats, VH. Only the CDRs of the heavy chain vary.
VL: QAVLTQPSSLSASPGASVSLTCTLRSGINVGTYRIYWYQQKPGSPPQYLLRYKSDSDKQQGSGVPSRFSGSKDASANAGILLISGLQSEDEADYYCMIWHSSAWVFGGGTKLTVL
VH: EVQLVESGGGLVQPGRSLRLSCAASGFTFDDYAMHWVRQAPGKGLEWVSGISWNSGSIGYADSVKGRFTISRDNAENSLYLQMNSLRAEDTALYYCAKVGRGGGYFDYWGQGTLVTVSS

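AAYL51 was designed without a model: most single CDR substitutions and a random sample of double and triple ones. Affinity was read by AlphaSeq, a pooled yeast mating assay with surface-displayed partners. The frequency of each diploid, read from paired DNA barcodes, reflects how well the two displayed proteins bind. Each replicate has its own calibration line, from reference interactions of the BCL2 family. Mating was done three times.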

Each variant is given by its three heavy chain CDRs, as the data file delimits them; those of the parent are GFTFDDYAMH, GISWNSGSIGYADSVK, VGRGGGYFDY.
Scale: log10 of Kd in nM, estimated from mating counts; low values are strong binders.
Replicates are averaged; those with no signal do not enter the mean.
Where no diploid with the target was found in that replicate, the entry reads "ND": below detection, most likely a poor binder, though not proof of it.
Three control strains display no target. For library AAYL51, 21% of the pairings with them gave a signal, with a median of 4.54 and one signal in twenty below 3.26, so weak values seen in few replicates may be background. Also given: how often the same scFv was detected with the empty control strains, with their mean in brackets.

{"CDR-H1": "GFTFDDYAMH", "CDR-H2": "GISWNSGSIGEIDSVK", "CDR-H3": "VGRGGGIFDY", "log10 Kd, replicates": "ND / ND / ND", "mean log10 Kd (nM)": "ND", "empty controls": "0 of 9"}
{"CDR-H1": "GFTFESYAMQ", "CDR-H2": "GISWNSGSIGYADSVK", "CDR-H3": "VGRGGGYFDY", "log10 Kd, replicates": "ND / ND / ND", "mean log10 Kd (nM)": "ND", "empty controls": "0 of 9"}
{"CDR-H1": "GFTADDYAMH", "CDR-H2": "RISWNSGSIGYADSVK", "CDR-H3": "VGRGHGYFDY", "log10 Kd, replicates": "ND / ND / ND", "mean log10 Kd (nM)": "ND", "empty controls": "0 of 9"}
{"CDR-H1": "GFTFDDYAMF", "CDR-H2": "GISWNSGSIGYADSVK", "CDR-H3": "VGRGGHYFDN", "log10 Kd, replicates": "ND / ND / ND", "mean log10 Kd (nM)": "ND", "empty controls": "0 of 9"}
{"CDR-H1": "NFTFDDYAMH", "CDR-H2": "GISWNSGPIGYADSVK", "CDR-H3": "VGRGGGYCDY", "log10 Kd, replicates": "ND / ND / 4.54", "mean log10 Kd (nM)": "4.54", "empty controls": "3 of 9 (4.71)"}
{"CDR-H1": "GFTFDDYAMH", "CDR-H2": "GASWASGSIGYANSVK", "CDR-H3": "VGRGGGYFDY", "log10 Kd, replicates": "ND / ND / ND", "mean log10 Kd (nM)": "ND", "empty controls": "4 of 9 (4.06)"}
{"CDR-H1": "GFTFDDYAMH", "CDR-H2": "GISSCSGSIGYADSVS", "CDR-H3": "VGRGGGYFDY", "log10 Kd, replicates": "1.67 / 1.97 / 1.63", "mean log10 Kd (nM)": "1.76", "empty controls": "5 of 9 (5.06)"}
{"CDR-H1": "GFTVDDYAMH", "CDR-H2": "SISWNSGSIGYADSVK", "CDR-H3": "VGRGGLYFDY", "log10 Kd, replicates": "ND / 4.55 / ND", "mean log10 Kd (nM)": "4.55", "empty controls": "2 of 9 (3.76)"}
{"CDR-H1": "GFTFDDYAMH", "CDR-H2": "GISWNSGWIGYADPVK", "CDR-H3": "VGCGGGYFDY", "log10 Kd, replicates": "4.19 / ND / ND", "mean log10 Kd (nM)": "4.19", "empty controls": "1 of 9 (4.61)"}
{"CDR-H1": "GYTTDDYAMH", "CDR-H2": "GISWNSGSAGYADSVK", "CDR-H3": "VGRGGGYFDY", "log10 Kd, replicates": "ND / ND / ND", "mean log10 Kd (nM)": "ND", "empty controls": "0 of 9"}
{"CDR-H1": "GFTFDDYAMH", "CDR-H2": "GISWNSGSIGYADTRK", "CDR-H3": "LGRGGGYFDY", "log10 Kd, replicates": "ND / ND / ND", "mean log10 Kd (nM)": "ND", "empty controls": "1 of 9 (4.31)"}
{"CDR-H1": "GFTFDDSAMH", "CDR-H2": "GISWNSGSIGYASSVK", "CDR-H3": "VGRGRGYFDY", "log10 Kd, replicates": "3.93 / 4.14 / 4.79", "mean log10 Kd (nM)": "4.29", "empty controls": "5 of 9 (4.88)"}
{"CDR-H1": "GLTFDDYAGH", "CDR-H2": "GISWNSGSIGYADSVT", "CDR-H3": "VGRGGGYFDY", "log10 Kd, replicates": "5.20 / 6.61 / 5.28", "mean log10 Kd (nM)": "5.69", "empty controls": "3 of 9 (5.07)"}
{"CDR-H1": "GFSFDDYCMH", "CDR-H2": "GISWNSGSIGYADSVK", "CDR-H3": "VGRGGGYSDY", "log10 Kd, replicates": "ND / ND / ND", "mean log10 Kd (nM)": "ND", "empty controls": "1 of 9 (4.39)"}
{"CDR-H1": "GFTFDDSAMH", "CDR-H2": "PISWNSGSIGNADSVK", "CDR-H3": "VGRGGGYFDY", "log10 Kd, replicates": "ND / ND / ND", "mean log10 Kd (nM)": "ND", "empty controls": "0 of 9"}
{"CDR-H1": "FFTFDDYAMH", "CDR-H2": "GISWNSGSIGYADSVK", "CDR-H3": "VGLGGGIFDY", "log10 Kd, replicates": "ND / ND / 2.83", "mean log10 Kd (nM)": "2.83", "empty controls": "2 of 9 (3.90)"}
{"CDR-H1": "GFTFDDYARH", "CDR-H2": "GISWNSGSIGYADSVK", "CDR-H3": "VGRGKGYFCY", "log10 Kd, replicates": "ND / ND / ND", "mean log10 Kd (nM)": "ND", "empty controls": "3 of 9 (4.20)"}
{"CDR-H1": "GRTFDDYAMH", "CDR-H2": "GSSWNSGSIGYADSVK", "CDR-H3": "TGRGGGYFDY", "log10 Kd, replicates": "4.08 / ND / 4.86", "mean log10 Kd (nM)": "4.47", "empty controls": "1 of 9 (3.69)"}
{"CDR-H1": "GFQFDDYAMH", "CDR-H2": "GISWNSDSIGYWDSVK", "CDR-H3": "VGRGGGYFDY", "log10 Kd, replicates": "1.99 / ND / ND", "mean log10 Kd (nM)": "1.99", "empty controls": "0 of 9"}
{"CDR-H1": "GFTFDDYAQH", "CDR-H2": "GISWNSGSIGNADSVK", "CDR-H3": "VGRGGGYFDY", "log10 Kd, replicates": "ND / ND / ND", "mean log10 Kd (nM)": "ND", "empty controls": "0 of 9"}
{"CDR-H1": "GFTFDDYTMH", "CDR-H2": "GIVWNSGSIGYADSVK", "CDR-H3": "VGRTGGYFDY", "log10 Kd, replicates": "4.08 / 4.12 / ND", "mean log10 Kd (nM)": "4.10", "empty controls": "0 of 9"}
{"CDR-H1": "GFTFDCYAMH", "CDR-H2": "IISWNSGSIGYADSVK", "CDR-H3": "VGRGGGYKDY", "log10 Kd, replicates": "ND / ND / ND", "mean log10 Kd (nM)": "ND", "empty controls": "0 of 9"}
{"CDR-H1": "GFTFDDYAMH", "CDR-H2": "GISWNSGSIWYADSVD", "CDR-H3": "VGRGGGYLDY", "log10 Kd, replicates": "ND / ND / ND", "mean log10 Kd (nM)": "ND", "empty controls": "0 of 9"}
{"CDR-H1": "GNTFDDFAMH", "CDR-H2": "GISWNSGSIGYADSVS", "CDR-H3": "VGRGGGYFDY", "log10 Kd, replicates": "4.48 / 5.66 / 4.50", "mean log10 Kd (nM)": "4.88", "empty controls": "2 of 9 (3.83)"}
{"CDR-H1": "GFTFDDYAMH", "CDR-H2": "QISWNSHSIGYADNVK", "CDR-H3": "VGRGGGYFDY", "log10 Kd, replicates": "ND / ND / ND", "mean log10 Kd (nM)": "ND", "empty controls": "1 of 9 (2.94)"}
{"CDR-H1": "GFTFDDYWMH", "CDR-H2": "GISWNSGSIGYADSVK", "CDR-H3": "VQRGGGYFLY", "log10 Kd, replicates": "ND / ND / ND", "mean log10 Kd (nM)": "ND", "empty controls": "0 of 9"}
{"CDR-H1": "GFTFDDYAMH", "CDR-H2": "GISWNSGSIGYADSVA", "CDR-H3": "VGGGGGYFDY", "log10 Kd, replicates": "2.17 / 2.05 / 1.89", "mean log10 Kd (nM)": "2.04", "empty controls": "1 of 9 (4.63)"}
{"CDR-H1": "GFTFDGYAMH", "CDR-H2": "WISWNSGSIGYADSVK", "CDR-H3": "VGYGGGYFDY", "log10 Kd, replicates": "ND / 3.58 / 4.26", "mean log10 Kd (nM)": "3.92", "empty controls": "2 of 9 (3.88)"}

The first 2 variants above that were never detected:

| CDR-H1 | CDR-H2 | CDR-H3 | log10 Kd, replicates | mean log10 Kd (nM) | empty controls |
|---|---|---|---|---|---|
| GFTFDDYAMH | GISWNSGSIGEIDSVK | VGRGGGIFDY | ND / ND / ND | ND | 0 of 9 |
| GFTFESYAMQ | GISWNSGSIGYADSVK | VGRGGGYFDY | ND / ND / ND | ND | 0 of 9 |

From the AlphaSeq antibody data of Engelhart et al. 2022 (doi:10.1038/s41597-022-01779-4), copy in the FLAb collection.